# Measured affinities in a library of Ab-14 light chain variants

From the AlphaSeq antibody data of Li et al. 2023 (doi:10.1038/s41467-023-39022-2), copy in the FLAb collection.

All variants were tested on one target, the spike HR2 peptide PDVDLGDISGINAS (SARS-CoV-2).

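Phage display of a naive human antibody library on the peptide gave the parent. These sequences belong to a second round, designed from the earlier measurements on random variants of the parent. Group labels follow the data file (Ctrl: baseline library sampled from a position-specific scoring matrix, with some repeated check sequences; En: ensemble of fine-tuned language models; GP: Gaussian process model; HC: hill climbing; Gen: genetic algorithm; Gibbs: Gibbs sampling; a sequence that several methods proposed may carry one label only). The assay is AlphaSeq: two haploid yeast populations carry antibody and antigen on their surface. After mating in shaken culture at 30 °C for 16 h, diploids were selected and their barcode pairs sequenced. The ratio of observed to expected reads was calibrated, replicate by replicate, on BCL2-family standards whose Kd was known from biolayer interferometry. There are six technical replicates.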

Parent: Ab-14, a human scFv built as VH, a (GGGGS)3 linker, VL. Only the CDRs of the light chain vary.
VH: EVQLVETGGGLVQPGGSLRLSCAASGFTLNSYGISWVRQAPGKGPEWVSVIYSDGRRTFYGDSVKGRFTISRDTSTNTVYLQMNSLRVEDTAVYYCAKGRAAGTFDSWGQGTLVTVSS
VL: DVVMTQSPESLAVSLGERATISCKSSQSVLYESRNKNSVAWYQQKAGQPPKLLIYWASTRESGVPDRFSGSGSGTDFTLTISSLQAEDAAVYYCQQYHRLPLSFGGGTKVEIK

Variants are written as CDR1, CDR2 and CDR3 of the light chain (limits as in the source). Parent: KSSQSVLYESRNKNSVA, WASTRES, QQYHRLPLS.
Kd is apparent (estimated from mating counts) and averaged on the log scale over replicates with a signal. Smaller is tighter.
Where no diploid with the target was found in any replicate, the entry reads "nd": below detection, most likely a poor binder, though not proof of it.

{"CDR-L1": "KLWMSPFEGQSELQAVA", "CDR-L2": "QAEVLRQ", "CDR-L3": "QQYNMLPLS", "group": "En_Gibbs", "apparent Kd": "79 nM", "seen in": "4 of 6"}
{"CDR-L1": "KSSWSYLYESRNTNSVA", "CDR-L2": "EASTRES", "CDR-L3": "QQYHRLPLS", "group": "GP_HC", "apparent Kd": "1.7 nM", "seen in": "6 of 6"}
{"CDR-L1": "KSSQSVLWESRNGNSVA", "CDR-L2": "WASTRES", "CDR-L3": "QQYHRLPLS", "group": "Ctrl", "apparent Kd": "150 nM", "seen in": "2 of 6"}
{"CDR-L1": "TIGGTLMYGYRNRSNVA", "CDR-L2": "EVSERLN", "CDR-L3": "QQYDRLPLM", "group": "En_Gen", "apparent Kd": "76 nM", "seen in": "6 of 6"}
{"CDR-L1": "KLSMSELYESRNKNSVA", "CDR-L2": "GASTRES", "CDR-L3": "QQYHRLPLS", "group": "GP_Gen", "apparent Kd": "2.1 nM", "seen in": "6 of 6"}
{"CDR-L1": "KLSQSVLYESRMKNSVA", "CDR-L2": "NASTREV", "CDR-L3": "QQYHRLPLS", "group": "GP_Gen", "apparent Kd": "1.2 nM", "seen in": "6 of 6"}
{"CDR-L1": "HISMSMNYLSRNKNSIA", "CDR-L2": "EESTRED", "CDR-L3": "QQYFRLPLS", "group": "En_HC", "apparent Kd": "650 pM", "seen in": "6 of 6"}
{"CDR-L1": "ALTAHRLVAIEAKNSIA", "CDR-L2": "NAVMRED", "CDR-L3": "QQYAQLPLM", "group": "En_Gibbs", "apparent Kd": "1.1 nM", "seen in": "6 of 6"}
{"CDR-L1": "KLQSITGTEKVHGNNVA", "CDR-L2": "EMETRER", "CDR-L3": "QQYNRLPLA", "group": "En_Gen", "apparent Kd": "1.0 nM", "seen in": "6 of 6"}
{"CDR-L1": "KSSQSVQDESRNMNSVA", "CDR-L2": "WASTRES", "CDR-L3": "QQYHRLPLS", "group": "Ctrl", "apparent Kd": "130 nM", "seen in": "6 of 6"}
{"CDR-L1": "KSSQSVWMESRNKNSVA", "CDR-L2": "WASTRES", "CDR-L3": "QQYHRLPLS", "group": "Ctrl", "apparent Kd": "16 nM", "seen in": "6 of 6"}
{"CDR-L1": "QLEWYNSTATEAKNSVA", "CDR-L2": "GVEHRMN", "CDR-L3": "QQYMRLPLF", "group": "En_Gibbs", "apparent Kd": "2.2 nM", "seen in": "6 of 6"}
{"CDR-L1": "HIHSQMFGTIAVKKNVA", "CDR-L2": "NANTRLS", "CDR-L3": "QQYSHLPLS", "group": "En_Gibbs", "apparent Kd": "23 nM", "seen in": "6 of 6"}
{"CDR-L1": "KQSQSFLYESRNSNSVA", "CDR-L2": "NASQREQ", "CDR-L3": "QQYHRLPLM", "group": "GP_Gibbs", "apparent Kd": "1.2 nM", "seen in": "6 of 6"}
{"CDR-L1": "KMSQSWLYESRNKNSVA", "CDR-L2": "NGSTRES", "CDR-L3": "QQYHRLPLS", "group": "GP_Gen", "apparent Kd": "46 nM", "seen in": "6 of 6"}
{"CDR-L1": "KLSQSDLYESRNKNSVA", "CDR-L2": "DASTRES", "CDR-L3": "YQYHRLPSS", "group": "GP_HC", "apparent Kd": "nd", "seen in": "0 of 6"}
{"CDR-L1": "KQSQSVLYESRNKNSVA", "CDR-L2": "YASTRES", "CDR-L3": "QQYHRLPLS", "group": "Ctrl", "apparent Kd": "140 nM", "seen in": "2 of 6"}
{"CDR-L1": "KWSQSVLYESTNFNSVA", "CDR-L2": "NASTRES", "CDR-L3": "QQYHRLPLS", "group": "Ctrl", "apparent Kd": "1.0 nM", "seen in": "6 of 6"}
{"CDR-L1": "KSSQSVLYESRNKNSVA", "CDR-L2": "NASTRES", "CDR-L3": "QQYHRLPFS", "group": "Ctrl", "apparent Kd": "1.1 nM", "seen in": "6 of 6"}
{"CDR-L1": "KTSQSVLYESDNKNSVA", "CDR-L2": "WASTRES", "CDR-L3": "QQYHRLPLS", "group": "Ctrl", "apparent Kd": "12 nM", "seen in": "4 of 6"}
{"CDR-L1": "KSLQSWEYESRNKNSVA", "CDR-L2": "HASTREQ", "CDR-L3": "QQYHRLPLS", "group": "GP_HC", "apparent Kd": "630 pM", "seen in": "6 of 6"}
{"CDR-L1": "KVSQSVLYESRMKNSVA", "CDR-L2": "DASTRLS", "CDR-L3": "QQYHRLPLS", "group": "GP_HC", "apparent Kd": "1.3 nM", "seen in": "6 of 6"}
{"CDR-L1": "KSSQSFLYESRNKNSVA", "CDR-L2": "GASQRES", "CDR-L3": "QQYHRLPLS", "group": "GP_HC", "apparent Kd": "740 pM", "seen in": "6 of 6"}
{"CDR-L1": "KCSSSVLINSRNVNSVA", "CDR-L2": "WASTRES", "CDR-L3": "QQYHRLPCS", "group": "Ctrl", "apparent Kd": "370 nM", "seen in": "1 of 6"}
{"CDR-L1": "TISQVMNTLTRHGNNVA", "CDR-L2": "DLQNREN", "CDR-L3": "QQYYRLPLS", "group": "En_Gen", "apparent Kd": "16 nM", "seen in": "6 of 6"}
{"CDR-L1": "KSSQSVLYESNNKNSVA", "CDR-L2": "HASTRED", "CDR-L3": "QQYHRLPLS", "group": "GP_HC", "apparent Kd": "7.2 nM", "seen in": "6 of 6"}
{"CDR-L1": "KLSQSVLYEQRNKNSVA", "CDR-L2": "QASTRMS", "CDR-L3": "QQYHRLPLS", "group": "GP_Gen", "apparent Kd": "1.3 nM", "seen in": "6 of 6"}
{"CDR-L1": "KSSQSVLFESRNDNSVA", "CDR-L2": "GASTRES", "CDR-L3": "QQYHRLVLS", "group": "Ctrl", "apparent Kd": "12 nM", "seen in": "5 of 6"}
{"CDR-L1": "KFSQSDPYEDGNKNSVA", "CDR-L2": "NASTRSS", "CDR-L3": "QQYHRLPLS", "group": "GP_Gibbs", "apparent Kd": "1.8 nM", "seen in": "6 of 6"}
{"CDR-L1": "KMAQGNPYESRNKNSVA", "CDR-L2": "NASYREM", "CDR-L3": "QQYHRLPLS", "group": "GP_Gibbs", "apparent Kd": "380 pM", "seen in": "6 of 6"}

Nonspecific signal, from three strains lacking the peptide, appeared in 4% of pairings of all light chain designs, centred on 430 nM (5% of these signals below 38 nM); values are not corrected for it.
Values of this round are not directly comparable with the first-round values of the same sequences.
In the paper, a design with two or fewer of six values counts as a poor binder.